The source of these data is ChEMBL document CHEMBL1136295, “Synthesis of a new reactivator of tabun-inhibited acetylcholinesterase” (2003).

The target of experiment [1] is T1, Acetylcholinesterase (Rattus norvegicus) (UniProt P37136).
T1 sequence (whole entry): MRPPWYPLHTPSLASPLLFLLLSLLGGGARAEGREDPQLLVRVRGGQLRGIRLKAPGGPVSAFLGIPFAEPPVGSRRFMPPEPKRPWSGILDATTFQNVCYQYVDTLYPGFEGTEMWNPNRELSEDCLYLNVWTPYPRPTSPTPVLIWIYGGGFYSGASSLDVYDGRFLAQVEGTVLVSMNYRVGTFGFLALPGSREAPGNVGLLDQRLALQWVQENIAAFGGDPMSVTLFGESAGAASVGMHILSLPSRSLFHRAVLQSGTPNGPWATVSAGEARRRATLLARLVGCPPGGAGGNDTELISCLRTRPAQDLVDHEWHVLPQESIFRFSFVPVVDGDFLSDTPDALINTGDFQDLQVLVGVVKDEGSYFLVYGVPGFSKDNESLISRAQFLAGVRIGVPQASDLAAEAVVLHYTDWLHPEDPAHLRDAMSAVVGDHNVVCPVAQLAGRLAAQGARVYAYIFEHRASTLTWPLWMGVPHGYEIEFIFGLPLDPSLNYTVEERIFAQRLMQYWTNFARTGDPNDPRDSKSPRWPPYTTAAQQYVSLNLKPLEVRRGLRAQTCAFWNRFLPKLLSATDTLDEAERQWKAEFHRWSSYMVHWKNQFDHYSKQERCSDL
Kind of experiment: First-order rate constant for acetylcholinesterase was determined in vitro in rat brain.

For experiment [2], the target named is T1, Acetylcholinesterase (Rattus norvegicus). Kind of experiment: Bimolecular constants of reactivation was determined by its ability to reactivate tabun-inhibited AchE.
Experiment [3] shares this target. The experiment is described as follows: In vitro dissociation constant of rat brain Acetylcholinesterase (AChE) inhibitor reactivator complex was determined.
For experiment [4] the target is unchanged. Kind of experiment: In vitro dissociation constant of rat brain Acetylcholinesterase (AChE)-reactivator complex was determined.

Each structure is given as a SMILES string.

The compound `NC(=O)c1cc[n+](COC[n+]2ccccc2/C=N/O)cc1` registered a kR in experiment [1] of 0.007 min. The compound further came in with a kr in experiment [2] of 1110 min1 M1. Further, the KR in experiment [3] stood at 6.3 µM.

As to `C[n+]1ccccc1C=NO`, the K diss in experiment [4] came to 210 µM.

For the compound `NC(=O)c1cc[n+](CCCC[n+]2ccc(/C=N/O)cc2)cc1`, the kR in experiment [1] is 0.0324 min. For the same compound, in experiment [2], the kr was 348 min1 M1. Besides, the K diss in experiment [4] came to 228 µM. Besides, the KR in experiment [3] was 93 µM.
